This note sets out measurements from PubChem BioAssay (NCI).

Several values for one entry are separate records, joined by “and”; a condition that tells them apart may be missing. Equal values may be shown once. The entries are a selection whose mix differs from that of the whole data set. Some results for these compounds are left out of this collection, so the calls shown say nothing about other tests.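 Cell lines were cultured in 96-well plates, exposed to a single compound concentration, and assessed for percent growth 48 hours later.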 Activity calls are given as the source filed them. The calls were made as follows: active = growth percent below 10; inactive = the rest.

For one experiment, the system named is DU-145 prostate. The experiment can be described thus: NCI-60 one-dose screen, 48 h (100 = growth as untreated, 0 = no growth, -100 = all killed). The settings on record: 10 µM.
For `N#CC(C#N)=Cc1cccc(Br)c1`, the growth was inactive: 106%. As to `CC(=O)CI`, the growth was inactive: 113%. Regarding `ClCCN(CCCl)Cc1ccc(Cl)c(Cl)c1`, the growth was inactive: 105%. Consider `CCCN(CCCl)CCCl`, for which the growth was inactive: 117%.

As for `ClCCN(CCCl)C1CCCCC1`, the growth was inactive: 97.6%. Same read-out and setting: next, `BrCCN(CCBr)Cc1ccccc1`: inactive: 113%; `N#CC(C#N)=Cc1ccc(Br)cc1`: inactive: 106% and inactive: 103%. Still for that read-out and setting: next, `Cc1cc2nc(CN(CCCl)CCCl)[nH]c2cc1C`: inactive: 99.4%; `COc1ccc(N=C=S)cc1CN(CCCl)CCCl`: inactive: 69.7%; `CCNCCCl`: inactive: 96.3%. Still for that read-out and setting: next, `N#CC(C#N)=Cc1ccccc1Cl`: inactive: 102%; `CC[N+](C)(C)Cc1cccc(Cc2ccccc2)c1OC(=O)N(C)C`: inactive: 113%; `COCc1c(CN(CCCl)CCCl)cnc(C)c1O`: inactive: 110%. For the compound `ClCCN(CCCl)Cc1ccsc1Br`, the growth is inactive: 90%.

Consider `ClCCN(CCCl)C1c2ccccc2-c2ccccc21`, for which the growth is inactive: 97.5%. Consider `CN(CCBr)CCBr`, for which the growth was inactive: 102%. As for `CCOc1ccc([N+](=O)[O-])cc1CN(CCCl)CCCl`, the growth is inactive: 104%.

As to `ClCCCCCC(CCl)NCCCl` (configuration not stated), the growth is inactive: 84.5%. As to `COc1ccc([N+](=O)[O-])cc1CN(CCCl)CCCl`, the growth was inactive: 109%. Consider `CC(C)(C)N(CCCl)CCCl`, for which the growth is inactive: 109%. Still for that read-out and setting: under `O=C(OCCN1CCCC1)C(O)(c1ccccc1)c1ccccc1` stands inactive: 116%. Same read-out and setting: next, `ClCCN(CCCl)Cc1cc(Cl)cc(Cl)c1`: inactive: 74.2%; `CN(C)CCOC(=O)C(O)(c1ccccc1)c1ccccc1`: inactive: 111%; `Fc1cccc(CN(CCCl)CCCl)c1`: inactive: 101%.

The test system of another experiment is K-562 leukemia. The experiment is described as above. Particulars: 10 µM.
With `N#CC(C#N)=Cc1cccc(Br)c1`, the growth was inactive: 101%. As for `CC(=O)CI`, the growth was inactive: 114%. Turning to `ClCCN(CCCl)Cc1ccc(Cl)c(Cl)c1`, the growth is inactive: 87.3%. On to `CCCN(CCCl)CCCl`, for which the growth is inactive: 123%. Regarding `ClCCN(CCCl)C1CCCCC1`, the growth was inactive: 101%. Take `BrCCN(CCBr)Cc1ccccc1`: the growth was inactive: 105%. Same read-out and setting: next, `N#CC(C#N)=Cc1ccc(Br)cc1`: inactive: 94.4% and inactive: 93.5%; `Cc1cc2nc(CN(CCCl)CCCl)[nH]c2cc1C`: inactive: 94.1%. As to `COc1ccc(N=C=S)cc1CN(CCCl)CCCl`, the growth was inactive: 65.6%.

With `CCNCCCl`, the growth is inactive: 115%. Same read-out and setting: under `CC[N+](C)(C)Cc1cccc(Cc2ccccc2)c1OC(=O)N(C)C` stands inactive: 89.8%; under `COCc1c(CN(CCCl)CCCl)cnc(C)c1O`, inactive: 102%; under `ClCCN(CCCl)Cc1ccsc1Br`, inactive: 69.8%.

For the compound `ClCCN(CCCl)C1c2ccccc2-c2ccccc21`, the growth is inactive: 79.5%. Same read-out and setting: under `CN(CCBr)CCBr` stands inactive: 104%; under `CCOc1ccc([N+](=O)[O-])cc1CN(CCCl)CCCl`, inactive: 91.5%; under `ClCCCCCC(CCl)NCCCl` (configuration not stated), inactive: 86.7%. On to `COc1ccc([N+](=O)[O-])cc1CN(CCCl)CCCl`, for which the growth was inactive: 109%. Same read-out and setting: next, `CC(C)(C)N(CCCl)CCCl`: inactive: 107%; `O=C(OCCN1CCCC1)C(O)(c1ccccc1)c1ccccc1`: inactive: 129%; `ClCCN(CCCl)Cc1cc(Cl)cc(Cl)c1`: inactive: 76.1%. In the case of `CN(C)CCOC(=O)C(O)(c1ccccc1)c1ccccc1`, the growth was inactive: 104%.

Turning to `Fc1cccc(CN(CCCl)CCCl)c1`, the growth is inactive: 99%.
